The assay concerns the target T1, slowly delayed rectifier potassium channel current (IKs) (Cavia porcellus, UniProt O70344).
T1 construct: the Guinea pig myocardial cells are separated with enzymolysis; endogenous in cells; host or cells: freshly isolated guinea pig ventricular myocytes
T1 sequence (O70344 1-671): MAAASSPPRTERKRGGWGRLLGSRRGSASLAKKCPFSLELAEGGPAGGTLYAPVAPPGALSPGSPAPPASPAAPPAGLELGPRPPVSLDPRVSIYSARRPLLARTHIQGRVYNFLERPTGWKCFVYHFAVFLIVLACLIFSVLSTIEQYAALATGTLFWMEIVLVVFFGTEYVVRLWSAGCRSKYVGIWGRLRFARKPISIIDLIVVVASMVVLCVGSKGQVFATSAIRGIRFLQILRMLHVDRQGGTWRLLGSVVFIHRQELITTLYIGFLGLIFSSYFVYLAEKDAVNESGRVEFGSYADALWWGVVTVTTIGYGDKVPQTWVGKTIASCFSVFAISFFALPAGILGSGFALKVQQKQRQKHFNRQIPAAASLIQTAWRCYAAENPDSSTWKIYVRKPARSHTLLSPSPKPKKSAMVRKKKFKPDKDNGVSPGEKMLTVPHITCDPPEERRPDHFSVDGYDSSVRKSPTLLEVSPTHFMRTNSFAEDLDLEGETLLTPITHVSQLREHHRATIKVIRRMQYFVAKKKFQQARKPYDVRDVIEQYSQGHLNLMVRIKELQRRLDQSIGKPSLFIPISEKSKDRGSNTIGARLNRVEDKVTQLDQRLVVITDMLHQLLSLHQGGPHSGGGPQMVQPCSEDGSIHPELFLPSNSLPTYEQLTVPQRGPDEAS
T1 sequence (P41686 1-245 partner): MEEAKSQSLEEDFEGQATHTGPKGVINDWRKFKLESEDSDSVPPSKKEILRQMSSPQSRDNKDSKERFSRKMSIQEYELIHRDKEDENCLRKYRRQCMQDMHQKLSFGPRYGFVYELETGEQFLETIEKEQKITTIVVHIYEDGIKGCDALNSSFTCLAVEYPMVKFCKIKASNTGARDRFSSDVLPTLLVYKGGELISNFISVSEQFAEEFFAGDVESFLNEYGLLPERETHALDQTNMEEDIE
Kind of assay: whole cell patch clamp on isolated Guinea pig myocardial cells, IKs. Conditions: Guinea pig ventricular myocytes, current recorded 10 min after administration, 25-30° C. Format: cell-based. Here is the method: Experimental title: using vitro pachynsis myocardial cells of Guinea pig, the activity is determined by the whole cell membrane Patch clamp technology.
experimental mechanism: the Guinea pig myocardial cells are separated with enzymolysis, and the rapid activation component and the slowly activation component of the delayed commutating current in the cardiac muscle cells are recorded by whole cell membrane Patch clamp. Each compound is added to the perfuse liquid for measuring current after dissolved at least 10 min. The collected data is analyzed in pulse-fit, the IC50 value for IKr and IKs of each compound is calculated.
animals: Guinea pigs, male, weight 300-400 g.
solution: calcium free Tyrode's solution
pole inner solution (mmol/L): KCl 140, MgCl2 1.0, K2-ATP 4.0, EGTA 10, HEPES 5.0, pH=7.2 […]
the cell liquor is put into the cell pool, after the cells adhering to the wall, they are perfused with outer liquor of the cells at the rate of 2 ml/min, cells that having calcium resistance and clear transverse striations are to be selected, the poles are moved to the cell surface by tridimensional manipulator. […] After the compensation to the capacitance and series impedance compensation the voltage tongs are recorded. […]
Stimulate parameter: the record of IKr and IKS: the back value of the either current is recorded. […]
On the technique in general: The patch-clamp technique gives a direct electrical read-out from membranes.

Structures are written as SMILES. pIC50: −log10 of the molar value.

Among the data in patent publication US7772230B2, “Chroman compound, processes for its preparation, and its pharmaceutical use” (China Pharmaceutical University, priority 2006, dated 2010) are IC50 values, retold here.

`CCCCOc1ccc2c(c1)/C(=N/N1CC(=O)N(CCCN3CCN(C)CC3)C1=O)CCO2` [Ib example 11, 1-[4-(2,3-dihydro-6-butoxy)benzopyran]imino-3-[3-(4-methylpiperazine-1-yl)propyl]-2,4-imidazole dione difumarate]: the pIC50 (in general, the IC50 on a negative log10 scale, so that one unit is a factor of ten) was 5.91.
